# Results from IntAct's records for PubMed 25477193.
# Target: kap0_human PRKAR1A (UniProt P10644)
substance,measurement,value
cAMP-dependent protein kinase catalytic subunit alpha (Homo sapiens) (from UniProt P17612) L206R,effect of a mutation on the interaction,disrupting interaction strength
